Measurements from US20080312230A1, “Organic Compounds” (Novartis AG, priority 2005, published 2008).

Assays:
CRTh2 receptor [1] = molecular target: T1, CRTh2 receptor (Homo sapiens, UniProt Q9Y5Y4); experiment: Filtration binding assay: [3H]-PGD2 competition on CHO.K1-CRTh2 membranes; conditions: competition with 2.5 nM [3H]-PGD2, CHO.K1-CRTh2 membranes, Cheng-Prussoff; read-out: Ki values in the SPA binding assay
T1 construct: expressed in transfected cells; host or cells: CHO.K1 (Chinese Hamster Ovary)
T1 sequence (Q9Y5Y4 1-395): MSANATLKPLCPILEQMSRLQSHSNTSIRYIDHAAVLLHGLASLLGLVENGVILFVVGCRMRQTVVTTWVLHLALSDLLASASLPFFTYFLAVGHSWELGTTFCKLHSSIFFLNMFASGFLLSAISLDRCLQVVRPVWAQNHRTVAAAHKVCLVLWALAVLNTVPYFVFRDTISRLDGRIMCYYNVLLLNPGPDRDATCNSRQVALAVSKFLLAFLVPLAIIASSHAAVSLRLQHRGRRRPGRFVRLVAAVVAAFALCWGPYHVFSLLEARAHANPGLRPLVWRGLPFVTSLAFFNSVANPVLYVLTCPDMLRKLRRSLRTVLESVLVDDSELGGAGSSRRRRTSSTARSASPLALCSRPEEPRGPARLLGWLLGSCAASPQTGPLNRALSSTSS
Experimental: Filtration Binding Assay Protocol
The binding of CRTh2 antagonists is determined using membranes prepared from human CRTh2-expressing Chinese Hamster Ovary cells (CHO.K1-CRTh2). To produce cell membranes CHO.K1-CRTh2 cells cultured in roller bottles are harvested using cell dissociation buffer (Invitrogen). The cells are pelleted by centrifugation (167 g, 5 min). The cell pellet is incubated in hypotonic buffer (15 mM Tris-OH, 2 mM MgCl2, 0.3 mM EDTA, 1 mM EGTA, 1× Complete™ tablet) at 4° C. for 30 min. At 4° C. cells are homogenized using a Polytron® (IKA Ultra Turrax T25) for 5 bursts of 1 second. The homogenate is centrifuged (Beckman Optima TM TL Ultracentrifuge, 48000 g, 30 min at 4° C.). […]
The binding of [^3H]-PGD2 (157 Ci/mmol) to CHO.K1-CRTh2 membranes is determined in the absence (total binding) and presence (non-specific binding) of unlabelled PGD2 (1 μM). […]
The plates are incubated at room temperature on a shaker for 1 hour, and then harvested (Tomtec Harvester 9600) onto GF/C filter plates using wash buffer (10 mM HEPES-KOH, pH 7.4). […] Plates are then counted using a Packard Top Count instrument, Plates are then read on the Packard Topcount with the 3H Scintillation program (1 min per well).
Ki (dissocation constant for the inhibition) values for the CRTh2 antagonists are reported. Ki values are determined using Sigma Plot™ software, using the Cheng-Prussoff equation. […]

CRTh2 receptor [2] = molecular target: T1, CRTh2 receptor; experiment: CRTH2 cAMP functional assay in CHO.K1-CRTh2 cells; format: cell-based
Experimental: The assay plate is incubated at room temperature on a shaker for 15 minutes.
A mix of agonist (10 nM Prostaglandin D2) and 5 μM forskolin is prepared in assay stimulation buffer and added to the assay plate (5 μL/well).
In addition, a cAMP standard is serially diluted in assay stimulation buffer and added to separate empty wells on the assay plate (20 μL/well).
The assay plate is incubated at room temperature on a shaker for 60 minutes.
The resulting lysis mix is added to all wells of the assay plate (40 μL/well).
The assay plate is sealed with Topseal-S™ and incubated in the dark at room temperature on a shaker for 45 minutes. The plate is then counted using a Packard Fusion™ instrument.
The resulting counts per minute are converted to nM cAMP by using the prepared cAMP standard curve.

Row | Ki (CRTh2 receptor [1]) [nM] | IC50 (CRTh2 receptor [2]) [nM] | SMILES
1 | 37 | 168 | Cc1c(CC(=O)O)c2cccnc2n1S(=O)(=O)c1ccc(F)c(C#N)c1 [Example 54, [1-(3-Cyano-4-fluoro-benzenesulfonyl)-2-methyl-1H-pyrrolo[2,3-b]pyridin-3-yl]-acetic acid]
2 | 33 | 150 | Cc1c(CC(=O)O)c2cccnc2n1S(=O)(=O)c1ccc(F)c(F)c1 [Example 59, [1-(3,4-Difluoro-benzenesulfonyl)-2-methyl-1H-pyrrolo[2,3-b]pyridin-3-yl]-acetic acid]
